Data on two substances can be found in US20240115712A1, “SEMICARBAZONE-BASED SAPONIN CONJUGATE” (priority 2021, published 2024).

For one assay, the system named is A431 cells. It counts as cell-based, human. As to conditions: for cell killing activity of conjugate alone: A431, equivalent concentrations, without CD71mab-saporin. As for the experimental part:
Cell viability was determined by an MTS-assay, performed according to the manufacturer's instruction (CellTiter 96® AQueous One Solution Cell Proliferation Assay, Promega). Briefly, the MTS solution was diluted 20× in DMEM without phenol red (PAN-Biotech GmbH) supplemented with 10% FBS (PAN-Biotech GmbH). The cells were washed once with 200 μL PBS per well, after which 100 μL diluted MTS solution was added per well. The plate was incubated for approximately 20-30 minutes at 37° C. Subsequently, the optical density at 492 nm was measured on a Thermo Scientific Multiskan FC plate reader (Thermo Scientific).

In assay [1] the test system is HSP27 mRNA expression in A431 cells. Briefly: HSP27 gene silencing (qPCR) in A431 cells. To be noted: A431 (EGFR++/HER2+/-); conjugate titrated +50 pM Trastuzumab-HSP27BNA; read-out: IC50 targeted HSP27 gene silencing. It counts as cell-based, human. The text has this:
RNA Isolation and Gene Expression Analysis
RNA from cells was isolated and analysed according to standard protocols (Biorad).
In general terms: Quantitative PCR measures a nucleic acid by following its amplification.

Regarding “Cetuximab-(SC-SO1861)^4: SO1861-SC-Mal conjugated via cysteine residues to Cetuximab, DAR 4”, the “cell killing activity of conjugate alone” value with A431 cells is recorded as “could not induce any cell killing activity”.
One may read the IC50 as the concentration at which inhibition is half-maximal. Take “Cetuximab-(EMCH-SO1861)^4: SO1861-EMCH conjugated to Cetuximab cysteines, hydrazone comparator”: the IC50 with A431 cells (A431 (EGFR++/CD71+), conjugate titrated +10 pM CD71mab-saporin, read-out: IC50 targeted cell killing) came out at 2 nM; in assay [1] it was 0.5 nM. The “cell killing activity of conjugate alone” value in the assay with A431 cells was “could not induce any cell killing activity”.
